{"source": "patent US8421457B2", "about": "“Methods and systems for magnetically resonating both a subject and a substance administered to the subject” (Applied Magnetics, LLC, priority 2008, dated 2013)", "system": "fibromyalgia patients", "assay": "Case reports: fibromyalgia, drugs combined with MR treatment", "assay_type": "in vivo, human", "settings": "same subject; thirteen MR treatments within a two-month period", "experimental": "In one example, a person experienced fibromyalgia for a number of years. The subject also experienced insomnia, restless legs, and chronic fatigue. The subject took the drug Naproxen (Aleve). The subject received seven consecutive days of 1 to 1.5 hour treatments.\nTheir primary complaint was back pain. […] The subject received thirteen treatments within a two-month period. […] Approximately two months after completing their first series of treatment, they began a second regimen of ten treatments within a two-month period.\nIn a further example, a person at least fifty years old suffered from fibromyalgia for a number of years. […] The subject received daily (when possible) treatments for approximately one year."}
{"smiles": "CN1CC[C@]23c4c5ccc(O)c4O[C@H]2C(=O)CC[C@H]3[C@H]1C5", "note": "[Dilaudid]", "values": [{"measurement": "pain level after treatment, first series", "result": 0.5}]}
